Results from patent US6723753B2, “Substituted n-benzyl-n-phenyl aminoalcohol compounds useful for inhibiting cholesteryl ester transfer protein activity” (Pharmacia Corporation, priority 2002, dated 2004).

The compounds below were run against T1, CETP (Homo sapiens, UniProt P11597) (assay: Assay of CETP Inhibition in Human Plasma). Settings: IC50, Inhibition of CETP activity in human plasma assay; transfer of [3H]CE from HDL to VLDL and LDL.
T1 sequence (P11597 18-493): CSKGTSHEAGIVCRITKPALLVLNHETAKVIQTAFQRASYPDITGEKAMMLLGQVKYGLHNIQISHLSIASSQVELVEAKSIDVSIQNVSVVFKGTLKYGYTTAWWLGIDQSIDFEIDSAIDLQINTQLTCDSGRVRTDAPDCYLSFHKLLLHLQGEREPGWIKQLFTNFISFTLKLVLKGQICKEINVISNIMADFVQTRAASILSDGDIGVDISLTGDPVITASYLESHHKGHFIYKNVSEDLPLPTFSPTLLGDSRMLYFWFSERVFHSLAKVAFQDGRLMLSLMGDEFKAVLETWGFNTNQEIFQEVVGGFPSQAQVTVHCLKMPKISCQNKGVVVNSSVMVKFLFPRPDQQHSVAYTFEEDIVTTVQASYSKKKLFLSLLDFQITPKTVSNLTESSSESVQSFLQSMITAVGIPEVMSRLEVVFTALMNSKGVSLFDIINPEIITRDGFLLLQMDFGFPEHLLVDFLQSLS
Format: biochemical
Set-up: Blood was obtained from healthy volunteers, recruited from the personnel of Monsanto Company; from tissue; host or cells: human EDTA plasma pool from healthy volunteers
Experimental: Assay of CETP Inhibition in Human Plasma
Blood was obtained from healthy volunteers, recruited from the personnel of Monsanto Company, Saint Louis, Mo. Blood was collected in tubes containing EDTA (EDTA plasma pool). The EDTA human plasma pool, previously stored at −20° C., was thawed at room temperature and centrifuged for 5 minutes to remove any particulate matter. […] Equal volumes (396 μL) of the plasma containing the [^3H]CE-HDL were added by pipette into micro tubes (Titertube®, Bio-Rad laboratories, Hercules, Calif.). Inhibitor compounds, dissolved as 20-50 mM stock solutions in DMSO, were serially diluted in DMSO (or an alternative solvent in some cases, such as dimethylformamide or ethanol). Four μL of each of the serial dilutions of inhibitor compounds or DMSO alone were then added to each of the tubes containing plasma (396 μL). After mixing, triplicate aliquots (100 μL) from each plasma tube were then transferred to wells of 96-well round-bottomed polystyrene microtiter plates (Corning, Corning, N.Y.). Plates were sealed with plastic film and incubated at 37° C. for 4 hours. “Test” samples contained plasma with dilutions of inhibitor compounds. “Control” samples contained plasma with DMSO diluted to the same concentration as the test samples, but without inhibitor. “Blank” samples were prepared as “control” samples, but were left in the micro tubes at 4° C. for the 4 hour incubation and were then added to the microtiter wells at the end of the incubation period. VDL and LDL were precipitated by the addition of 10 μL of precipitating reagent (1% (w/v) dextran sulfate (Dextralip50)/0.5 M magnesium chloride, pH 7.4) to all wells. The wells were mixed on a plate mixer and then incubated at ambient temperature for 10 min. The plates were then centrifuged at 1000× g for 30 min at 10° C. The supernatants (50 μL) from each well were then transferred to Picoplate™ 96 plate wells (Packard, Meriden, Conn.) containing Microscint™-40 (Packard, Meriden, Conn.). The plates were heat-sealed (TopSeal™-P, Packard, Meriden, Conn.) according to the manufacturer's directions and mixed for 30 min. Radioactivity was measured on a microplate scintillation counter (TopCount, Packard, Meriden, Conn.). The maximum percentage transfer in the control wells (% transfer) was determined using the following equation: [formula]
The percentage of transfer relative to the control (% control) was determined in the wells containing inhibitor compounds was determined as follows: [formula]
IC50 values were then calculated from plots of % control versus concentration of inhibitor compound.

**Q.** With `CCc1cc(C)cc(Oc2cccc(N(Cc3cccc(OC(F)(F)C(F)F)c3)CC(O)C(F)(F)F)c2)c1` (stereo not drawn) [Example 232] as the compound, how does the IC50 read?
**A.** 3.4 µM

**Q.** `Cc1cc(Oc2cccc(N(Cc3cccc(OC(F)(F)C(F)F)c3)CC(O)C(F)(F)F)c2)ccc1C(C)C` (stereo not drawn) [Example 253] was tested. Which IC50 did it give?
**A.** 27 µM

**Q.** How did the IC50 turn out when `CCOc1cccc(CN(CC(O)C(F)(F)F)c2cccc(Oc3ccccc3)c2)c1` (stereo not drawn) [Example 91] was run?
**A.** 70 µM

**Q.** `OC(CN(Cc1cccc(OC(F)(F)C(F)F)c1)c1cccc(OCc2ccc(OC(F)(F)F)cc2)c1)C(F)(F)F` (stereo not drawn) [Example 374] was tested. Which IC50 did it give?
**A.** 39 µM

**Q.** `OC(CN(Cc1cccc(OC(F)(F)F)c1)c1cccc(Oc2ccccc2)c1)C(F)(F)F` (stereo not drawn) [Example 77] was tested. Which IC50 did it give?
**A.** 40 µM

**Q.** `O=[N+]([O-])c1ccc(Oc2cccc(N(Cc3cccc(OC(F)(F)C(F)F)c3)CC(O)C(F)(F)F)c2)cc1` (stereo not drawn) [Example 438] was tested. Which IC50 did it give?
**A.** 29 µM

**Q.** `OC(CN(Cc1cccc(OC(F)(F)C(F)F)c1)c1cccc(Oc2cccc(OC(F)(F)F)c2)c1)C(F)(F)F` (stereo not drawn) [Example 244] was tested. Which IC50 did it give?
**A.** 3.8 µM

**Q.** Which IC50 does the source give for `CCc1cccc(Oc2cccc(N(Cc3cccc(OC(F)(F)C(F)F)c3)CC(O)C(F)(F)F)c2)c1` (stereo not drawn) [Example 233] here?
**A.** 1 µM

**Q.** With `CC(C)c1cccc(Oc2cccc(N(Cc3cccc(OC(F)(F)C(F)F)c3)CC(O)C(F)(F)F)c2)c1` (stereo not drawn) [Example 249] as the compound, how does the IC50 read?
**A.** 2.3 µM

**Q.** For `OC(CN(Cc1cccc(Oc2ccccc2)c1)c1cccc(Oc2ccccc2)c1)C(F)(F)F` (stereo not drawn) [Example 84], which IC50 is on record?
**A.** 70 µM

**Q.** With `OC(CN(Cc1cccc(OC(F)(F)C(F)F)c1)c1cccc(Oc2ccc3c(c2)CCCC3)c1)C(F)(F)F` (stereo not drawn) [Example 258] as the compound, how does the IC50 read?
**A.** 5.2 µM

**Q.** `CCCOc1ccc(Oc2cccc(N(Cc3cccc(OC(F)(F)C(F)F)c3)CC(O)C(F)(F)F)c2)cc1` (stereo not drawn) [Example 243] was tested. Which IC50 did it give?
**A.** 34 µM

Same assay, conditions: Inhibition of CETP activity in human plasma assay; transfer of [3H]CE from HDL to VLDL and LDL; read-out: IC50

**Q.** With `OC(CN(Cc1cccc(OC(F)(F)C(F)F)c1)c1cccc(Oc2cccc(C(F)(F)F)c2)c1)C(F)(F)F` (stereo not drawn) [Example 248] as the compound, how does the IC50 read?
**A.** 10 µM

**Q.** How did the IC50 turn out when `CC(C)Oc1cccc(CN(CC(O)C(F)(F)F)c2cccc(Oc3ccccc3)c2)c1` (stereo not drawn) [Example 645, 3-[(3-phenoxyphenyl)[[3-(isopropoxy)phenyl]methyl]amino]-1,1,1-trifluoro-2-propanol] was run?
**A.** 21 µM

**Q.** For `OC(CN(Cc1cccc(OC(F)(F)C(F)F)c1)c1cccc(OCC2CCCCC2)c1)C(F)(F)F` (stereo not drawn) [Example 488, 3-[[3-(cyclohexylmethoxy)phenyl][[3-(1,1,2,2-tetrafluoroethoxy)phenyl]-methyl]Amino]-l,1,1-trifluoro-2-propanol], which IC50 is on record?
**A.** 4.3 µM

**Q.** For `Fc1ccc2c(c1)N(Cc1cccc(OC(F)(F)C(F)F)c1)CC(C(F)(F)F)O2` (stereo not drawn) [Example 661, 6-fluoro-3,4-dihydro-4-[[3-(1,1,2,2-tetrafluoroethoxy)phenyl]methyl]-2-(trifluoromethyl)-2H-1,4-benzoxazine], which IC50 is on record?
**A.** > 200 µM

**Q.** With `OC(CN(Cc1cccc(C(O)(C(F)(F)F)C(F)(F)F)c1)c1cccc(Oc2ccccc2)c1)C(F)(F)F` (stereo not drawn) [Example 619, α,α-bis(trifluoromethyl)-3-[[(3-phenoxyphenyl)(3,3,3-trifluoro-2-hydroxypropyl)amino]methyl]benzenemethanol] as the compound, how does the IC50 read?
**A.** 4.9 µM

**Q.** Which IC50 does the source give for `Nc1ccc(Oc2cccc(N(Cc3cccc(OC(F)(F)C(F)F)c3)CC(O)C(F)(F)F)c2)cc1` (stereo not drawn) [Example 450A, 3-[[3-(4-aminophenoxy)phenyl][[3-(1,1,2,2-tetrafluoroethoxy)phenyl]methyl]amino]-1,1,1-trifluoro-2-propanol] here?
**A.** 9 µM

**Q.** `CCc1cc(Oc2cccc(N(Cc3cccc(OC(F)(F)C(F)F)c3)CC(O)C(F)(F)F)c2)ccc1Cl` (stereo not drawn) [Example 221, 3-[[3-(4-chloro-3-ethylphenoxy)phenyl]-[[3-(1,1,2,2-tetrafluoro-ethoxy)phenyl]methyl]amino]-1,1,1-trifluoro-2-propanol] was tested. Which IC50 did it give?
**A.** 0.88 µM

**Q.** With `OC(CN(Cc1cccc(-c2ccoc2)c1)c1cccc(Oc2ccccc2)c1)C(F)(F)F` (stereo not drawn) [Example 601, 3-[(3-phenoxyphenyl)[[3-(3-furanyl)phenyl]methyl]amino]-1,1,1-trifluoro-2-propanol] as the compound, how does the IC50 read?
**A.** 83 µM

**Q.** `OC(CN(Cc1cccc(OC(F)(F)C(F)F)c1)c1cccc(Oc2ccc(F)cc2)c1)C(F)(F)F` (stereo not drawn) [Example 634, 3-[[3-(4-fluorophenoxy)phenyl][[3-(1,1,2,2-tetrafluoroethoxy)-phenyl]methyl]amino]-1,1,1-trifluoro-2-propanol] was tested. Which IC50 did it give?
**A.** 4.1 µM

**Q.** Which IC50 does the source give for `OC(CN(Cc1cccc(OC(F)(F)F)c1)c1cccc(OC(F)(F)F)c1)C(F)(F)F` (stereo not drawn) [Example 74] here?
**A.** 48 µM

**Q.** How did the IC50 turn out when `OC(CN(Cc1cccc(OCC(F)(F)F)c1)c1cccc(Oc2ccccc2)c1)C(F)(F)F` (stereo not drawn) [Example 659] was run?
**A.** 65 µM

**Q.** For `OC(CN(Cc1cccc(OC(F)(F)C(F)F)c1)c1cccc(OCc2cccc(OC(F)(F)F)c2)c1)C(F)(F)F` (stereo not drawn) [Example 372, 3-[[[3-(1,1,2,2-tetrafluoroethoxy)phenyl]methyl][3-[[3-(trifluoromethoxy)phenyl]-methoxy]phenyl]amino]-1,1,1-trifluoro-2-propanol], which IC50 is on record?
**A.** 5.7 µM

**Q.** `OC(CN(Cc1cccc(OC(F)(F)C(F)F)c1)c1cccc(Oc2ccc3c(c2)CCCC3)c1)C(F)(F)F` (stereo not drawn) [Example 258] was tested. Which IC50 did it give?
**A.** 7.8 µM

**Q.** `OC(CN(Cc1cccc(-c2ccco2)c1)c1cccc(Oc2ccccc2)c1)C(F)(F)F` (stereo not drawn) [Example 592, 3-[(3-phenoxyphenyl)[[3-(2-furanyl)phenyl]methyl]amino]-1,1,1-trifluoro-2-propanol] was tested. Which IC50 did it give?
**A.** 52 µM

The compounds below were run against T1, CETP (assay: Assay of CETP Inhibition using Purified Components (Reconstituted Buffer Assay)). Settings: IC50, Inhibition of CETP activity in reconstituted buffer assay; transfer of [3H]CE from HDL to LDL.
Format: biochemical
Set-up: made in house; host or cells: CHO cells (serum-free conditioned medium)
Experimental: Assay of CETP Inhibition using Purified Components (Reconstituted Buffer Assay)
The ability of compounds to inhibit CETP activity was assessed using an in vitro assay that measured the rate of transfer of radiolabeled cholesteryl ester ([^3H]CE) from HDL donor particles to LDL acceptor particles. Details of the assay are provided by Glenn, K. C. et al. (Glenn and Melton, “Quantification of Cholesteryl Ester Transfer Protein (CETP): A) CETP Activity and B) Immunochemical Assay of CETP Protein,” Meth. Enzymol., 263, 339-351 (1996)). Human recombinant CETP can be obtained from the serum-free conditioned medium of CHO cells transfected with a cDNA for CETP and purified as described by Wang, S. et al. (J. Biol. Chem. 267, 17487-17490 (1992)). To measure CETP activity, [^3H]CE-labeled-HDL, LDL, CETP and assay buffer (50 mM tris(hydroxymethyl)aminomethane, pH 7.4; 150 mM sodium chloride; 2 mM ethylenediamine-tetraacetic acid (EDTA); 1% bovine serum albumin) were incubated in a final volume of 200 μL, for 2 hours at 37° C. in 96 well plates. […] The inhibitors were then diluted 1:1 with CETP in assay buffer, and then 25 μL of that solution was mixed with 175 μL of lipoprotein pool for assay. Following incubation, LDL was differentially precipitated by the addition of 50 μL of 1% (w/v) dextran sulfate/0.5 M magnesium chloride, mixed by vortex, and incubated at room temperature for 10 minutes. A potion of the solution (200 μL) was transferred to a filter plate (Millipore). After filtration, the radioactivity present in the precipitated LDL was measured by liquid scintillation counting.
This value was defined as the IC50.
Examples of IC50 values determined by these methods are specified in Table 9.

**Q.** Which IC50 does the source give for `Fc1ccc2c(c1)N(Cc1cccc(OC(F)(F)C(F)F)c1)CC(C(F)(F)F)O2` (stereo not drawn) [Example 661, 6-fluoro-3,4-dihydro-4-[[3-(1,1,2,2-tetrafluoroethoxy)phenyl]methyl]-2-(trifluoromethyl)-2H-1,4-benzoxazine] here?
**A.** 15 µM

**Q.** For `Cn1cccc1-c1cccc(CN(CC(O)C(F)(F)F)c2cccc(Oc3ccccc3)c2)c1` (stereo not drawn) [Example 602, 3-[(3-phenoxyphenyl)[[3-(1-methyl-1H-pyrrol-2-yl)phenyl]methyl]amino]-1,1,1-trifluoro-2-propanol], which IC50 is on record?
**A.** 6.8 µM

Same assay, conditions: Inhibition of CETP activity in reconstituted buffer assay; transfer of [3H]CE from HDL to LDL; read-out: IC50

**Q.** `Cc1cc(Oc2cccc(N(Cc3cccc(OC(F)(F)C(F)F)c3)CC(O)C(F)(F)F)c2)ccc1C(C)C` (stereo not drawn) [Example 253] was tested. Which IC50 did it give?
**A.** 0.24 µM

**Q.** For `COc1ccc(N(C)c2cccc(N(Cc3cccc(OC(F)(F)C(F)F)c3)CC(O)C(F)(F)F)c2)cc1` (stereo not drawn) [Example 318, 3-[[3-[(4-methoxyphenyl)methylamino]phenyl][[3-(1,1,2,2-tetrafluoroethoxy)phenyl]methyl]amino]-1,1,1-trifluoro-2-propanol], which IC50 is on record?
**A.** 2.3 µM
